## Antibody variant affinities, Ab-95 light chain, assay 2

Target: peptide PDVDLGDISGINAS, taken from heptad repeat 2 (HR2) of SARS-CoV-2 spike.

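The starting antibody came from a phage panning campaign against this peptide. AAYL52 was designed without a model: most single CDR substitutions and a random sample of double and triple ones. Affinity was read by AlphaSeq, a pooled yeast mating assay with surface-displayed partners. Mating (16 h, 30 °C) was followed by selection of diploids and sequencing of their barcodes. Read counts were normalised to the haploid input and turned into Kd by a linear fit to BCL2-family pairs of known affinity, for each replicate. Mating was done three times.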

Each scFv is VH, three GGGGS repeats, VL, as in the parent Ab-95, and differs from it in the CDRs of the light chain only.
VH: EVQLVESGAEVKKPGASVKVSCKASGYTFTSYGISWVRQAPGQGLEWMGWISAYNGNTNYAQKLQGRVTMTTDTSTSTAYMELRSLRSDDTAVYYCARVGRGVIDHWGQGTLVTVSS
VL: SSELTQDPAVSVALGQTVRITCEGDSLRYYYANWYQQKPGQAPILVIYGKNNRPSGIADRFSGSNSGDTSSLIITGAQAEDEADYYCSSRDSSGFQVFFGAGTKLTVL

Variants are written as CDR1, CDR2 and CDR3 of the light chain (limits as in the source). Parent: EGDSLRYYYAN, GKNNRPS, SSRDSSGFQVF. All variants listed here change R53 of the VL, counted from its first residue. Values are apparent Kd, the geometric mean of the replicates that gave a signal; lower means stronger binding. A pair that was not seen in any replicate is written "not detected"; this usually means weak binding, but a binder can also be missed. Empty control strains, which show no peptide, gave a signal in 28% of pairings with library AAYL52; the median was 8.2 µM and 95% of these signals were weaker than 800 nM. No background was subtracted. For each scFv, signals with the empty controls are counted beside the result.

| CDR-L1 | CDR-L2 | CDR-L3 | apparent Kd | seen in | signal with controls |
|---|---|---|---|---|---|
| KGDSLRYYYPN | GKNNPPS | SSRDSSGFQVF | 150 nM | 3 of 3 | 0 of 9 |
| EGDSLRYYYAN | GKNNPPS | SSRMSSGFYVF | 3.3 µM | 3 of 3 | 5 of 9 |
| EGSSLRYYYAN | GKNNLPS | SSLDSSGFQVF | 1.9 µM | 2 of 3 | 4 of 9 |
| EGDSLRYYYAN | GKNNHPS | KSRDSSGFTVF | 20 µM | 1 of 3 | 0 of 9 |
| EGDSHRYYYAN | GKINYPS | SSRDSSGFQVF | not detected | 0 of 3 | 5 of 9 |
| EGDILRYYYAN | GKNIGPS | SSRDSSGFQVF | 3.3 µM | 1 of 3 | 2 of 9 |
| EGDSLRWYYAN | IKNNDPS | SSRDSSGFQVF | 19 µM | 3 of 3 | 1 of 9 |
| MGDSLRYYYAC | GKNNHPS | SSRDSSGFQVF | 130 µM | 2 of 3 | 3 of 9 |
| EGDSLRYYYCP | GKNNLPS | SSRDSSGFQVF | not detected | 0 of 3 | 1 of 9 |
| EGDSLRYYYAN | GKNNAPS | SSRDISGFQMF | 14 µM | 2 of 3 | 2 of 9 |
| EGDSLRYPYAN | GKNNEPS | SSRDSQGFQVF | 7.6 µM | 1 of 3 | 0 of 9 |
| EGDSLRYYYAA | GKNNEPS | SSRDRSGFQVF | 22 µM | 2 of 3 | 2 of 9 |
| EGSSLRYYYAN | GKNNTPS | SSRDSSYFQVF | 390 nM | 3 of 3 | 5 of 9 |
| EGWSLRYYYDN | GKNNEPS | SSRDSSGFQVF | 22 µM | 3 of 3 | 5 of 9 |
| EGDSLRYYYAN | GKNNWPS | SSRDSSGAQVF | 61 µM | 1 of 3 | 3 of 9 |
| EGDSLRYYYAN | GKNNVPS | SSRDSSGFHVN | 43 nM | 3 of 3 | 3 of 9 |
| TGDSLRYYYAG | GKNNSPS | SSRDSSGFQVF | not detected | 0 of 3 | 1 of 9 |
| EGDSLRYYYAN | GKNNGPS | SSRMSSGFQVF | not detected | 0 of 3 | 1 of 9 |
| EGDSLRYYYRN | GKNNTPS | SSRDSSGFEVF | 9.3 µM | 3 of 3 | 3 of 9 |
| EGDSLRYYYAN | GHNNMPS | SSRDSSGFQLF | 30 µM | 1 of 3 | 3 of 9 |
| EGDSLRYYYAN | GKNNNPS | SSRDSSGFRVC | 18 µM | 2 of 3 | 5 of 9 |
| EFDSLRYYYAN | GKNNQPS | SSRDSSGQQVF | 2.6 µM | 2 of 3 | 2 of 9 |
| EGDSLRYQYAN | GKNNAPS | SSRDSSGFQVF | 5.8 nM | 3 of 3 | 5 of 9 |
| EGGSLRYYYAN | GKNNNPS | FSRDSSGFQVF | not detected | 0 of 3 | 1 of 9 |
| EGDSLRAYYAN | GKNNVPS | SSRDSSGFQVF | 1.5 µM | 3 of 3 | 2 of 9 |
| EGDSLRPYYAN | GKNNLPS | SGRDSSGFQVF | 33 µM | 2 of 3 | 2 of 9 |
| EGDSLRQYYDN | GKNNYPS | SSRDSSGFQVF | 52 µM | 1 of 3 | 3 of 9 |
| EGTSLRYYYAN | GKNNKPS | SSEDSSGFQVF | 5.2 µM | 2 of 3 | 3 of 9 |
| EKDSLRYCYAN | GKNNKPS | SSRDSSGFQVF | not detected | 0 of 3 | 1 of 9 |
| EGDWLRYYYAN | GKNNGPS | SSRDSSGFQVF | 44 µM | 1 of 3 | 2 of 9 |
| EGDSLYYYYAN | GKNNVPS | SWRDSSGFQVF | 7.5 µM | 2 of 3 | 3 of 9 |
| EGDSLRYYYAN | GKNNVPS | LSQDSSGFQVF | 7.3 µM | 2 of 3 | 2 of 9 |
| EGDGIRYYYAN | GKNNCPS | SSRDSSGFQVF | 17 µM | 2 of 3 | 4 of 9 |
| DGDSLRYYYAN | GKNNLPD | SSRDSSGFQVF | 4.2 µM | 3 of 3 | 1 of 9 |
| EGDSRRYYYAN | GKNNTPS | SSRDSSGFKVF | 1.1 µM | 2 of 3 | 4 of 9 |
| EGDSLRYYYAN | GKRNFPS | SSRDSSGFQFF | 8.1 µM | 2 of 3 | 2 of 9 |
| ETDSLRYYYAN | GKNIWPS | SSRDSSGFQVF | 160 µM | 1 of 3 | 1 of 9 |
| EGDSLRYYYAN | GKNNGPS | SSRDSSGFQVF | 300 nM | 3 of 3 | 4 of 9 |
| EGDSLRYYYAN | GTNYFPS | SSRDSSGFQVF | not detected | 0 of 3 | 1 of 9 |
| EGDSLVYYYAN | GKNNDPS | SSRDFSGFQVF | not detected | 0 of 3 | 5 of 9 |
| EGDSLRYYYAC | GKNNIIS | SSRDSSGFQVF | 12 µM | 2 of 3 | 3 of 9 |
| EGDSLRYYLAN | GKNNEPS | SSRDSSGFQVF | 13 µM | 3 of 3 | 2 of 9 |
| EGDSLRYYYAL | GKNNNPS | SSRDSSGFRVF | 11 µM | 1 of 3 | 3 of 9 |
| NGDSLRYYYAN | GGNNNPS | SSRDSSGFQVF | 770 nM | 3 of 3 | 2 of 9 |
| EGDSLTYYYAN | GKNNNPS | STRDSSGFQVF | 1.3 µM | 3 of 3 | 1 of 9 |
| EGDSLRYMYAN | GKHNPPS | SSRDSSGFQVF | 19 µM | 3 of 3 | 5 of 9 |
| QGDSLRYYYAN | GKNNAPS | SSRDSSYFQVF | 520 nM | 3 of 3 | 0 of 9 |
| EGKSLRYYYAN | GKNNNPS | SSRDSSGFQVF | 5.3 µM | 3 of 3 | 3 of 9 |
| EGDSLRYYYAN | GKNNQPQ | SSRDKSGFQVF | 260 nM | 3 of 3 | 1 of 9 |
| EGDMLRYYYAN | GKNNIPS | SSRDSSGFQVF | 5.2 µM | 1 of 3 | 1 of 9 |
| EGDQLRYYYAN | GKNNHPS | SSRDSSGFQVC | 3.1 µM | 1 of 3 | 3 of 9 |
| EGDSLRYYAEN | GKNNQPS | SSRDSSGFQVF | not detected | 0 of 3 | 0 of 9 |
| EGDSLMYYYAN | GKNNKPS | SSRDSSGFQVF | 550 nM | 3 of 3 | 3 of 9 |
| EGDGLRYYYAN | CKNNHPS | SSRDSSGFQVF | 180 µM | 1 of 3 | 1 of 9 |
| EGDSLRYYMAN | GKNNKPS | SSRDSLGFQVF | 53 nM | 3 of 3 | 1 of 9 |
| EGDSHRYYYAN | GKNNGPS | SSRDSSGFQRF | 4.0 µM | 3 of 3 | 0 of 9 |
| EGDSLRYYYAN | GKNNMPS | SDRDPSGFQVF | not detected | 0 of 3 | 2 of 9 |
| EGDSLRYYYAN | GKNNEPS | SSRSSSGFQMF | 6.9 µM | 2 of 3 | 1 of 9 |
| EGDSERYYYAN | GKNNFLS | SSRDSSGFQVF | not detected | 0 of 3 | 4 of 9 |
| EGDSLRFYYAN | GKNNFPS | SSRDSSGFQVH | not detected | 0 of 3 | 2 of 9 |
| EGDSLRYYYAN | GKNNYPS | SSRWSSDFQVF | 44 µM | 2 of 3 | 7 of 9 |
| EGDSLRYYCAV | GKNNMPS | SSRDSSGFQVF | 3.7 µM | 3 of 3 | 2 of 9 |
| EGDSLRYYYAN | GKNNNPS | SFRDSSGFQVF | 1.4 µM | 1 of 3 | 3 of 9 |
| EGDSVHYYYAN | GKNNIPS | SSRDSSGFQVF | 440 µM | 1 of 3 | 1 of 9 |
| EGDILRYYYAN | GKNNFPS | SSRDNSGFQVF | 14 µM | 2 of 3 | 2 of 9 |

Extract of 7 entries:

| CDR-L1 | CDR-L2 | CDR-L3 | apparent Kd | seen in | signal with controls |
|---|---|---|---|---|---|
| EGDSHRYYYAN | GKNNGPS | SSRDSSGFQRF | 4.0 µM | 3 of 3 | 0 of 9 |
| EGDSLYYYYAN | GKNNVPS | SWRDSSGFQVF | 7.5 µM | 2 of 3 | 3 of 9 |
| EGDSLRQYYDN | GKNNYPS | SSRDSSGFQVF | 52 µM | 1 of 3 | 3 of 9 |
| TGDSLRYYYAG | GKNNSPS | SSRDSSGFQVF | not detected | 0 of 3 | 1 of 9 |
| EGDSLRYYYAC | GKNNIIS | SSRDSSGFQVF | 12 µM | 2 of 3 | 3 of 9 |
| EGDSLRPYYAN | GKNNLPS | SGRDSSGFQVF | 33 µM | 2 of 3 | 2 of 9 |
| EGDWLRYYYAN | GKNNGPS | SSRDSSGFQVF | 44 µM | 1 of 3 | 2 of 9 |

The measurements come from Engelhart et al. 2022 (doi:10.1038/s41597-022-01779-4) through the FLAb antibody collection.